Values of other authors in US20100278751A1, “RADIOLABELED 2-AMINO-4-ALKYL-6-(HALOALKYL)PYRIDINE COMPOUNDS AND THEIR USE IN DIAGNOSTIC IMAGING” (WASHINGTON UNIVERSITY, priority 2009, published 2010).

Target: iNOS (Homo sapiens, UniProt P35228)
Conditions: reported value for standards; cited from earlier work

L-N^6-iminoethyl-lysine [L-NIL, reference compound]
IC50: 1400 nM
